Laboratory results reported in patent US9487749B2 (priority 2009, dated 2016).

Key:
[1] = tested on: Lactobacillus acidophilus; assay: Growth of Lactobacillus acidophilus in Acidophilus milk fortified with MSM; type: cell-based; conditions: 5.0% MSM, Day 28
Excerpt: 31, 2013. […] The Acidophilus milk was low fat (Darigold).

pasture grass mix = conditions: in vivo

## CS(C)(=O)=O [MSM, Methylsulfonylmethane]
[1]
  log growth lower than control: 1.48 logs
Pasture grass mix
  Protein Solubility: 59.52%
